ChEMBL document CHEMBL1133575, “Discovery of a novel dopamine transporter inhibitor, 4-hydroxy-1-methyl-4-(4-methylphenyl)-3-piperidyl 4-methylphenyl ketone, as a potential cocaine antagonist through 3D-database pharmacophore searching. Molecular modeling, structure-activity relationships, and behavioral pharmacological studies” (J Med Chem, 2000)

Amino acid sequences for entries named in this document (tags omitted).
UniProt Q01959, whole entry: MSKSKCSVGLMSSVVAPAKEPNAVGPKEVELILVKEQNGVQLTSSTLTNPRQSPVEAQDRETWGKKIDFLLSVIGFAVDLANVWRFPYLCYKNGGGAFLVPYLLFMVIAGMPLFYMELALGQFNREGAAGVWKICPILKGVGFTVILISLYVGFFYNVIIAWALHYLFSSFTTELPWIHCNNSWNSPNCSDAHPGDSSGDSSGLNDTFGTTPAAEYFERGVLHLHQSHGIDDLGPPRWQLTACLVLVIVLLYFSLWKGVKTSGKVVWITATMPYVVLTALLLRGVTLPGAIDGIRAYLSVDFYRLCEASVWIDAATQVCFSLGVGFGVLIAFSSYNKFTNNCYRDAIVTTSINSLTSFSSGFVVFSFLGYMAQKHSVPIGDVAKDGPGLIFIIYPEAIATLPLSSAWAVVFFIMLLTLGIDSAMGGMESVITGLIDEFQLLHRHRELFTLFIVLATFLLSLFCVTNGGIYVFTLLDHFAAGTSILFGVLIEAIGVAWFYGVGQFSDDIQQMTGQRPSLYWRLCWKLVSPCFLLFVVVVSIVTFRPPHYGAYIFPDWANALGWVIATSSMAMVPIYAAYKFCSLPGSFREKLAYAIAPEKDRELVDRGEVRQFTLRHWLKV
UniProt Q9WTR4, whole entry: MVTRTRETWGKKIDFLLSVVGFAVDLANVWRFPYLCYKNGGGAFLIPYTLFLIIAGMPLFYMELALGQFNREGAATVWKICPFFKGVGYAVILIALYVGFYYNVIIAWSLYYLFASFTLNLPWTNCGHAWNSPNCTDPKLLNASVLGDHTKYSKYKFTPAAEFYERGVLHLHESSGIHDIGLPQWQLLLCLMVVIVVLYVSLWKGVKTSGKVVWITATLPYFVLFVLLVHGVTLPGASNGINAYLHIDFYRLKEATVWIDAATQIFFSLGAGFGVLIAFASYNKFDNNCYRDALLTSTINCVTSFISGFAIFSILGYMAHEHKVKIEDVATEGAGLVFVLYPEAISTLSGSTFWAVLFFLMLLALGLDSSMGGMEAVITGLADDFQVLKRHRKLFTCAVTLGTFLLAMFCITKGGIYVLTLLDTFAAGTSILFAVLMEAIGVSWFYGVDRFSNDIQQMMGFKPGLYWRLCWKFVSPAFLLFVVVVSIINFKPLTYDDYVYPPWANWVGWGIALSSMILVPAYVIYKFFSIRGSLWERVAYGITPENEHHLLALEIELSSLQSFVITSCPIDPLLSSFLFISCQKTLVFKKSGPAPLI

Assays:
[1] = molecular target: Sodium-dependent dopamine transporter (Homo sapiens, UniProt Q01959); test: Binding Affinity to cocaine site of dopamine transporter in caudate nuclei which was homogenized and incubated with [3H]mazindol.
[2] = molecular target: Norepinephrine transporter (Rattus norvegicus, UniProt Q9WTR4); test: Inhibition of [3H]NE Uptake in rat parietal/occipital cortex

Row | SMILES | Ki [1] | Ki [2]
1 | CN1CCC(O)(c2ccc(Cl)cc2Cl)C(C(=O)c2ccc(Cl)cc2Cl)C1 (configuration not stated) | 3650 nM | –
2 | COC(=O)[C@H]1[C@@H](OC(=O)c2ccccc2)C[C@@H]2CC[C@H]1N2C [COCAINE] | – | 108 nM
